Laboratory results: ChEMBL document CHEMBL1125731, “2,3-Dihydrobenzofuran analogues of hallucinogenic phenethylamines” (J Med Chem, 1991)

The chains behind the UniProt entries cited, without tags or fusion partners. Where a name states a change or a piece, a line headed by the entry shows the natural chain unless it says otherwise.
UniProt P30994: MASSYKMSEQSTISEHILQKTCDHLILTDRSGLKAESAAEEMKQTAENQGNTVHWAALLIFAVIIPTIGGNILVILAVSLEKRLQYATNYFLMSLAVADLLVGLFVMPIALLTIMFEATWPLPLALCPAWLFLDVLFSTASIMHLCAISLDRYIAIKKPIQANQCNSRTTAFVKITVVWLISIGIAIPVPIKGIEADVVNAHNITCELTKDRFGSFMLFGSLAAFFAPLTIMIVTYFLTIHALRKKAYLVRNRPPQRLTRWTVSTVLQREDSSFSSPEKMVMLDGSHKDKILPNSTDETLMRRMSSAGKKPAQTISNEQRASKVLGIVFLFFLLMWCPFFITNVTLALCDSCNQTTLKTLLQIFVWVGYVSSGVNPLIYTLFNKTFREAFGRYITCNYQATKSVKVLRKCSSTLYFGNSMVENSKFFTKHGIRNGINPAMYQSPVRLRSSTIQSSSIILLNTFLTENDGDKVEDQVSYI
UniProt P08909: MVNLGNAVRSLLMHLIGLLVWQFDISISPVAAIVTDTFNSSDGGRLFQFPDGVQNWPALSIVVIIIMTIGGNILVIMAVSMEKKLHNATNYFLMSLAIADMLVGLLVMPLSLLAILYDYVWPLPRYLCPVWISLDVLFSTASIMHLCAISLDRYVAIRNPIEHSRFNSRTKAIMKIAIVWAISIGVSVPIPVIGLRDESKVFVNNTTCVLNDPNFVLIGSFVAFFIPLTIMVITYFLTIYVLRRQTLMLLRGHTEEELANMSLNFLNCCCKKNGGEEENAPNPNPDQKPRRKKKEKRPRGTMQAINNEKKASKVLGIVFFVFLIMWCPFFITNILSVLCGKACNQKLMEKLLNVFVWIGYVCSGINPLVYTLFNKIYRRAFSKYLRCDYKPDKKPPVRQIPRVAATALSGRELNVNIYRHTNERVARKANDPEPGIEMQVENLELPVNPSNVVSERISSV
UniProt P14842: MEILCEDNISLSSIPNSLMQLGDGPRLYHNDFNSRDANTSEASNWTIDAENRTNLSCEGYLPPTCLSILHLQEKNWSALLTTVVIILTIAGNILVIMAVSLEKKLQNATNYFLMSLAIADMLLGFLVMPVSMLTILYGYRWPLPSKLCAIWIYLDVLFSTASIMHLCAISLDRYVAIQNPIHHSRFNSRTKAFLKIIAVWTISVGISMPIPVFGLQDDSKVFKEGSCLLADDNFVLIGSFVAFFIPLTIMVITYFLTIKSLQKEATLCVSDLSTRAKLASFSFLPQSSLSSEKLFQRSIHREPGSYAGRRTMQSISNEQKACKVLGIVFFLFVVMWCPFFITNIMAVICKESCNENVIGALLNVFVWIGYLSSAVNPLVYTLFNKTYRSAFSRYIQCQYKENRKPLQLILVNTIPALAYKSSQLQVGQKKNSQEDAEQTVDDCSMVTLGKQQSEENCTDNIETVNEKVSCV

Molecular target: Serotonin 2 (5-HT2) receptor (Rattus norvegicus, UniProt P30994+P08909+P14842)
Test: Compound was evaluated for its ability to displace 0.25 nM [125I](R)-DOI from binding sites in rat frontal cortex.
Format: tissue-based

## COc1ccc(OC)c(CC(C)N)c1 (stereo unspecified)
  Ki: 465 nM
